This is an account of results in PubChem BioAssay AID686979 (National Center for Advancing Translational Sciences (NCATS), 2013).

The list shows a part of the results, in another mix than the full data. Results filed as inconclusive are left out. Where a call stands in place of a potency, no number is given. Calls of active or inactive are those of the source. The call rests on the fitted dose curve; in most records, active means well fitted inhibition curve with a large enough effect; inconclusive means small, poorly fitted or top-dose-only effect; inactive means flat fitted curve, though single readings scatter.
Potency means the concentration at half of the fitted maximal effect.

The assay can be described thus: qHTS for Inhibitors of human tyrosyl-DNA phosphodiesterase 1 (TDP1): qHTS in cells in presence of CPT. Further: nearly all actives have a fitted effect of over 55% in size. The following applies: chicken DT40 Tdp1-/-;hTDP1 cells + 20 nM CPT, ATP luminescence, 48 h; series mostly up to 46.2 µM.
As to `Nc1ccc2c(ccc3cccnc32)n1.O=[N+]([O-])c1cc([N+](=O)[O-])c(O)c([N+](=O)[O-])c1`, the Potency entry is “inactive”.

On to `CCOC(=O)c1ccc(NP(C)(=O)Oc2ccc(Cl)cc2)cc1` (stereo not given), for which the Potency result is “inactive”.

On to `CC(C)OP(=O)(F)OC(C)C`, for which the Potency result was “inactive”.

Consider `COc1ccc(OP(C)(=O)Nc2ccc(Br)cc2)cc1` (stereo not given), for which the Potency entry is “inactive”.

As for `CCc1ccc(OP(C)(=O)Nc2cccnc2)cc1` (stereo not given), the Potency entry is “inactive”.

`CP(=O)(Oc1ccccc1)N1CCOC1=O` (stereo not given): the Potency entry was “inactive”.

For `O=C(OCCCN1CCCC1)C(O)(c1ccccc1)C1CCCCC1` (stereo not given), the Potency entry is “inactive”.

Turning to `OCCSCCO`, the Potency result was “inactive”.

As to `COc1ccccc1OP(C)(=O)Nc1c(C)n(C)n(-c2ccccc2)c1=O` (stereo not given), the Potency result is “inactive”.

For the compound `CP(=O)(Nc1ccc(Cl)cc1)Oc1ccc(F)cc1` (stereo not given), the Potency result is “inactive”.

In the case of `COc1ccccc1OP(C)(=O)Nc1ccccc1Br` (stereo not given), the Potency entry was “inactive”.

Take `CC(C)(C)c1ccc(OP(C)(=O)O)cc1`: the Potency result was “inactive”.

As for `CN(C)C(=O)c1c([N+](=O)[O-])cc([N+](=O)[O-])cc1[N+](=O)[O-]`, the Potency is active: 2.59 µM.

For the compound `COc1ccccc1OP(C)(=O)Nc1ccc(Br)cc1` (stereo not given), the Potency result is “inactive”.

For `CN(C)CCOC(=O)C(O)(c1ccccc1)C1CCCC1` (stereo not given), the Potency entry was “inactive”.

For `COc1ccc(OP(C)(=O)Nc2ccccn2)cc1` (stereo not given), the Potency entry is “inactive”.

Consider `Cc1c(NP(C)(=O)Oc2ccc(C(C)C)cc2)c(=O)n(-c2ccccc2)n1C` (stereo not given), for which the Potency result was “inactive”.

For `O=[N+]([O-])c1cc([N+](=O)[O-])c(Nc2ccccn2)c([N+](=O)[O-])c1`, the Potency was active: 2.31 µM.

Take `CCc1ccc(OP(C)(=O)O)cc1`: the Potency result was “inactive”.

For the compound `COc1ccccc1OP(C)(=O)Nc1ccc(C)cc1C` (stereo not given), the Potency result is “inactive”.

On to `CP(=O)(Nc1ccccn1)Oc1ccccc1` (stereo not given), for which the Potency result is “inactive”.

Take `Cc1cc(C)cc(OP(C)(=O)Nc2cccc(C(F)(F)F)c2)c1` (stereo not given): the Potency result was “inactive”.

With `COc1ccc(OP(C)(=O)Nc2ccccc2Br)cc1` (stereo not given), the Potency entry was “inactive”.

In the case of `COc1ccccc1OP(C)(=O)Nc1ccc(C)c(C)c1` (stereo not given), the Potency entry is “inactive”.

As for `CP(=O)(Nc1ccc(Cl)cc1Cl)Oc1ccccc1` (stereo not given), the Potency result is “inactive”.

As to `CCCCCCCCCCCCCCCC1C[N+](C)(C)CCOP(C)(=O)O1` (stereo not given), the Potency is active: 14.6 µM.

For `CP(=O)(OCCOc1ccccc1)OCCOc1ccccc1`, the Potency result is “inactive”.

On to `Cc1cccc([N+](=O)[O-])c1[N+](=O)[O-]`, for which the Potency entry is “inactive”.

For the compound `COc1ccc(OP(C)(=O)Nc2ccc(SC(F)(F)F)cc2)cc1` (stereo not given), the Potency was active: 16.4 µM.

Regarding `CCOC(=O)c1ccc(NP(C)(=O)Oc2ccc(F)cc2)cc1` (stereo not given), the Potency result was “inactive”.

On to `CCN(CC)CCCOC(=O)C(O)(c1ccccc1)C1CCCCC1` (stereo not given), for which the Potency entry is “inactive”.

In the case of `Cc1c([N+](=O)[O-])cc([N+](=O)[O-])c(Br)c1[N+](=O)[O-]`, the Potency was active: 6.51 µM.

In the case of `CP(=O)(Nc1ccccc1)Oc1ccc(F)cc1` (stereo not given), the Potency entry is “inactive”.

Turning to `CP(=O)(Nc1ccccc1F)Oc1ccccc1` (stereo not given), the Potency result was “inactive”.

Turning to `O=C(OCCN1CCN(CCOCc2ccccc2)CC1)C(O)(c1ccccc1)c1ccccc1`, the Potency result is “inactive”.

As to `CCOP(=O)(CC)Oc1ccc([N+](=O)[O-])cc1` (stereo not given), the Potency result is “inactive”.

On to `CCOP(C)(=S)SCC(=O)NC(C)(CC)C(=O)O` (stereo not given), for which the Potency entry is “inactive”.

Turning to `CP(=O)(Nc1ccc2c(c1)OCCO2)Oc1ccccc1` (stereo not given), the Potency result was “inactive”.

Turning to `O=[N+]([O-])c1cc([N+](=O)[O-])c(C(F)(F)F)c([N+](=O)[O-])c1O`, the Potency entry was “inactive”.

As for `Cc1ccccc1NP(C)(=O)Nc1ccccc1C`, the Potency entry was “inactive”.

For `CCN(CCCl)Cc1ccccc1C`, the Potency entry was “inactive”.

As to `COc1ccc(OP(C)(=O)Nc2cccc(Br)c2)cc1` (stereo not given), the Potency result was “inactive”.

With `COc1ccc(NP(C)(=O)Oc2ccccc2OC)cc1` (stereo not given), the Potency is active: 11.6 µM.

With `CN(C)CCOC(=O)C(O)(c1ccccc1)C1CCCCC1` (stereo not given), the Potency entry is “inactive”.

As to `O=[N+]([O-])c1ccc(OP2(=O)COCCO2)cc1` (stereo not given), the Potency result was “inactive”.

For the compound `Cc1c(C(c2ccc3c(c2)OCO3)c2c(C)n(C)n(-c3ccccc3)c2=O)c(=O)n(-c2ccccc2)n1C.O=[N+]([O-])c1cc([N+](=O)[O-])c(O)c([N+](=O)[O-])c1`, the Potency entry is “inactive”.

Turning to `CC1CCOC(=O)C=CC=CC(=O)OC2CC3OC4C5OC5(C)CCC4(COC(=O)C1O)C2(C)C31CO1` (stereo not given), the Potency was active: 0.082 µM.

In the case of `CN1CCCCC1COC(=O)C1(O)c2ccccc2CCc2ccccc21` (stereo not given), the Potency result was “inactive”.

For the compound `COc1ccccc1OP(C)(=O)Nc1c(C)cccc1C` (stereo not given), the Potency result is “inactive”.

In the case of `CCCOc1ccc(NP(C)(=O)Oc2ccc(Cl)cc2)cc1` (stereo not given), the Potency entry was “inactive”.

On to `COc1ccc(-c2ccccn2)cc1.O=[N+]([O-])c1cc([N+](=O)[O-])c(O)c([N+](=O)[O-])c1`, for which the Potency entry is “inactive”.

Turning to `O=[N+]([O-])c1cc([N+](=O)[O-])c(-n2nnc3ccccc32)c([N+](=O)[O-])c1`, the Potency entry was “inactive”.

Turning to `CC(C)N(CCCl)C(C)C`, the Potency entry was “inactive”.

With `O=[N+]([O-])c1cc([N+](=O)[O-])c(-c2cnn(-c3ccccc3)c2)c([N+](=O)[O-])c1`, the Potency is active: 3.66 µM.

Turning to `Cc1nc2ccc3ccccc3c2s1.O=[N+]([O-])c1cc([N+](=O)[O-])c(O)c([N+](=O)[O-])c1`, the Potency entry was “inactive”.

For `COc1ccccc1OP(C)(=O)Nc1cccc(Br)c1` (stereo not given), the Potency result was “inactive”.

With `Cc1cc(C)cc(OP(C)(=O)Nc2ccc(C)cc2C)c1` (stereo not given), the Potency entry was “inactive”.

Regarding `Cc1cc(C)cc(OP(C)(=O)Nc2ccccn2)c1` (stereo not given), the Potency result was “inactive”.

In the case of `CP(=O)(Nc1cccc(Br)c1)Oc1ccccc1` (stereo not given), the Potency result was “inactive”.

In the case of `Cc1ccc(C)c(NP(C)(=O)Oc2ccccc2)c1` (stereo not given), the Potency entry is “inactive”.

For `O=[N+]([O-])c1cccc([N+](=O)[O-])c1`, the Potency result is “inactive”.

Consider `O=[N+]([O-])OCC(CO[N+](=O)[O-])(CO[N+](=O)[O-])CO[N+](=O)[O-]`, for which the Potency entry was “inactive”.

In the case of `CC1=NCCc2c1[nH]c1ccccc21.O=[N+]([O-])c1cc([N+](=O)[O-])c(O)c([N+](=O)[O-])c1`, the Potency result was “inactive”.

As to `O=[N+]([O-])c1cc([N+](=O)[O-])c(Nc2cccnc2)c([N+](=O)[O-])c1`, the Potency was active: 23.1 µM.

Take `Cc1cccc(C)c1OP(C)(N)=O` (stereo not given): the Potency result is “inactive”.

As to `O=[N+]([O-])c1ccc2c(c1)C=Nc1ccccc1O2`, the Potency is active: 5.17 µM.

Consider `CCOC(=O)c1ccc(NP(C)(=O)Oc2ccccc2)cc1` (stereo not given), for which the Potency entry was “inactive”.

As for `Cc1ccc(NP(C)(=O)Oc2ccccc2)c(C)c1` (stereo not given), the Potency result is “inactive”.

Take `COc1ccccc1OP(C)(=O)Nc1ccc(C)cc1` (stereo not given): the Potency result was “inactive”.

As to `COc1ccc(OP(C)(=O)Nc2cccc(F)c2)cc1` (stereo not given), the Potency result is “inactive”.

`Cc1cc(C)cc(OP(C)(N)=O)c1` (stereo not given): the Potency result is “inactive”.

Take `CCN(CC)CCCOC(=O)C(O)(c1ccccc1)c1ccccc1`: the Potency result is “inactive”.

In the case of `COc1ccccc1-c1ccccn1.O=[N+]([O-])c1cc([N+](=O)[O-])c(O)c([N+](=O)[O-])c1`, the Potency entry is “inactive”.

For the compound `O=[N+]([O-])[O-].[NH4+]`, the Potency entry is “inactive”.

Take `CP(=O)(Oc1ccccc1)OC(c1ccccc1)C(F)(F)F` (stereo not given): the Potency entry is “inactive”.

For the compound `CP(=O)(NC(=O)Nc1ccccc1)Oc1ccccc1` (stereo not given), the Potency entry was “inactive”.

Regarding `CCc1ccc(OP(C)(=O)N2CCN(c3ccc([N+](=O)[O-])cc3)CC2)cc1` (stereo not given), the Potency was active: 16.4 µM.

Regarding `CCOP(C)(=S)SCC(=O)NC(C)C(=O)O` (stereo not given), the Potency entry is “inactive”.

In the case of `CN(C)CCS`, the Potency result is “inactive”.

On to `O=[N+]([O-])c1cc([N+](=O)[O-])c(O)c([N+](=O)[O-])c1.c1ccc(Oc2ccncc2)cc1`, for which the Potency entry is “inactive”.

`CCOC(=O)c1ccc(NP(C)(=O)Oc2ccc(OC)cc2)cc1` (stereo not given): the Potency result is “inactive”.

Regarding `CP(=O)(Nc1ccccn1)Oc1ccc(Cl)cc1` (stereo not given), the Potency result is “inactive”.

In the case of `CP(=S)(Nn1cnnc1)Oc1ccccc1` (stereo not given), the Potency entry was “inactive”.

As to `COc1ccccc1OP(C)(=O)Nc1ccccc1` (stereo not given), the Potency result is “inactive”.

`CP(=O)(Nc1ccccc1Br)Oc1ccccc1` (stereo not given): the Potency entry was “inactive”.
